One may read the Kd as the free concentration of one partner at which half of the binding sites on the other are occupied at equilibrium, for simple one-to-one binding.

Assay [1] has as its target T1, A33 antigen (Homo sapiens, endogenous on SW1222 and …, UniProt Q99795).
T1 construct: A33 antigen on human colorectal tumour cell lines; also called the antigen recognised by A33; source: endogenous, on SW1222 and Colo205 human colorectal tumour cells
Kind of assay: flow cytometry on cells; Scatchard analysis: FITC-labelled antibodies titrated on 2.8 x 10^5 SW1222 cells, 2 h on ice, 350 ul PBS with 5% FCS and 0.1% sodium azide; fluorescence per cell calibrated with standard beads; linear regression. The conditions noted are these: one partner purified. A general note: A flow cytometer gives signals particle by particle.

The target of assay [2] is T1, A33 antigen. In words: flow cytometry on cells; competition: Colo205 cells with a standard quantity of FITC-labelled murine A33 IgG and a dilution series of the humanised variants; bound FITC measured by FACScan; plotted against nM binding sites, triplicates. The conditions noted are these: one partner purified.

B1: humanised A33 IgG1 (antibody, V domains shown)
VH: EVQLLESGGGLVQPGGSLRLSCAASGFAFSTYDMSWVRQAPGKGLEWVATISSGGSYTYYLDSVKGRFTISRDSSKNTLYLQMNSLQAEDSAIYYCAPTTVVPFAYWGQGTLVTVSS
VL: DIQMTQSPSSLSVSVGDRVTITCKASQNVRTVVAWYQQKPGLAPKTLIYLASNRHTGVPSRFSGSGSGTDFTFTISSLQPEDIATYFCQQHWSYPLTFGQGTKVEVK
In turn, B1 displayed a Kd with A33 antigen [1] of 1.27 nM.

B2: hA33 TFM (other, human)
VH: EVQLLESGGGLVQPGGSLRLSCAASGFAFSTYDMSWVRQAPGKGLEWVATISSGGSYTYYLDSVKGRFTISRDSSKNTLYLQMNSLQAEDSAIYYCAPTTVVPFAYWGQGTLVTVSS
VL: DIQMTQSPSSLSVSVGDRVTITCKASQNVRTVVAWYQQKPGLAPKTLIYLASNRHTGVPSRFSGSGSGTDFTFTISSLQPEDIATYFCQQHWSYPLTFGQGTKVEVK
notes: as the Fab' heavy chain constant segment of m6 (from the cB72.3 Fab'Acys gene of King et al. 1994); human kappa light chain constant region; Three Fab' chemically cross-linked through the single hinge thiol; single species of approximately 150 kDa on non-reducing SDS-PAGE; also called hTFM; trivalent Fab fragment; copies: 3 + 3
In the case of B2, the “fold better binding than hIgG (competition)” value in the assay with A33 antigen [2] is approximately 2 fold.

Values taken from PMC2034099, “Preparation and preclinical evaluation of humanised A33 immunoconjugates for radioimmunotherapy” (British Journal of Cancer, 1995).
